Measured values reported in US20210395313A1, “PEPTIDE PAC1 ANTAGONISTS” (AMGEN INC., priority 2017, published 2021).

Molecular target: T1, rat PAC1 receptor (Rattus norvegicus, UniProt P32215)
T1 construct: SHSY-5Y (human neuroblastoma cell line) and RG-2 (rat glioma cell line) cells endogenously express human and rat PAC1 receptors, respectively; endogenous in cells; host or cells: RG-2 rat glioma cells
T1 sequence (P32215 20-523): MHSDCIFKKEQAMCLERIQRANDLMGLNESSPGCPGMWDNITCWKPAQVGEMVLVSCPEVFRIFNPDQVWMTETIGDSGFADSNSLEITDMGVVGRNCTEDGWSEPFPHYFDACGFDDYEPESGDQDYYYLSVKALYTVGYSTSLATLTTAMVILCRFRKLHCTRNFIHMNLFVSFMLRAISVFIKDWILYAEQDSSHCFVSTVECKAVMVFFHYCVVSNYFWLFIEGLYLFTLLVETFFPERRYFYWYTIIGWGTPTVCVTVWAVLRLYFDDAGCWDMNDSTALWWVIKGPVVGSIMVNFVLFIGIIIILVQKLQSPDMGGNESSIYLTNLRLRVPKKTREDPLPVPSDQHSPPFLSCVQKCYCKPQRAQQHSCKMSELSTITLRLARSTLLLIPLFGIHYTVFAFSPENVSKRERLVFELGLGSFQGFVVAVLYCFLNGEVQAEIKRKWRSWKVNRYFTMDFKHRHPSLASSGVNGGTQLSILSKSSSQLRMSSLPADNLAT
Assay: LANCE Ultra cAMP accumulation antagonist assay in RG-2 cells;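 further: RG-2 rat glioma cells endogenously expressing PAC1, test peptide preincubated 30 min, then PAC1 agonist added at its EC80 for 15 min, cAMP accumulation read by LANCE Ultra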
Format: cell-based

| Structure (SMILES) | IC50 |
| --- | --- |
| CC[C@H](C)[C@H](NC(=O)[C@H](C)NC(=O)[C@H](CCCCN)NC(=O)[C@H](CCCNC(=N)N)NC(=O)[C@H](Cc1ccccc1)NC(=O)[C@H](CCC(N)=O)NC(=O)[C@@H]1CSSC[C@H](N)C(=O)N[C@@H](CC(=O)O)C(=O)N[C@@H](C)C(=O)N[C@@H]([C@@H](C)O)C(=O)N1)C(=O)N[C@@H](CC(=O)O)C(=O)N[C@@H](CC(=O)O)C(=O)N[C@H]1CSSC[C@@H](C(=O)N[C@@H](CCSC)C(=O)N[C@@H](CCCCN)C(=O)N[C@@H](CCC(N)=O)C(=O)N[C@@H](CCCCN)C(=O)N[C@@H](CCCCN)C(=O)N[C@@H](CCCCN)C(=O)N[C@@H](CCC(=O)O)C(=O)N[C@@H](Cc2ccc(I)cc2)C(=O)N[C@@H](CCCCN)C(=O)N[C@@H](C)C(=O)NCC(N)=O)NC(=O)C(C)(C)NC(=O)[C@H](CCCCN)NC(=O)[C@H](Cc2ccccc2)NC(=O)[C@H](C(C)C)NC(=O)[C@H](CO)NC(=O)CNC(=O)[C@@H]2CCCN2C(=O)[C@H](C(C)C)NC(=O)[C@H](CC(N)=O)NC(=O)[C@H](CO)NC(=O)[C@H](Cc2c[nH]cn2)NC(=O)[C@H](Cc2c[nH]cn2)NC(=O)[C@H](C)NC(=O)[C@H](CCC(N)=O)NC(=O)[C@H](CCCCN)NC(=O)[C@H](CCC(N)=O)NC1=O [compound 187] | 0.01 to 1 nM |
| CC[C@H](C)[C@H](NC(=O)[C@H](C)NC(=O)[C@H](CCCCN)NC(=O)[C@H](CCCNC(=N)N)NC(=O)[C@H](Cc1ccccc1)NC(=O)[C@H](CCC(N)=O)NC(=O)[C@@H]1CSSC[C@H](N)C(=O)N[C@@H](CC(=O)O)C(=O)N[C@@H](C)C(=O)N[C@@H]([C@@H](C)O)C(=O)N1)C(=O)N[C@@H](CC(=O)O)C(=O)N[C@@H](CC(=O)O)C(=O)N[C@H]1CSSC[C@@H](C(=O)N[C@@H](CCSC)C(=O)N[C@@H](CCCCN)C(=O)N[C@@H](CCC(N)=O)C(=O)N[C@@H](CCCCN)C(=O)N[C@@H](CCCCN)C(=O)N[C@@H](CCCCN)C(=O)N[C@@H](CCC(=O)O)C(=O)N[C@@H](Cc2ccccc2)C(=O)N[C@@H](CCCCN)C(=O)N[C@@H](C)C(=O)NCC(N)=O)NC(=O)C(C)(C)NC(=O)[C@H](CCCCN)NC(=O)[C@H](Cc2ccccc2)NC(=O)[C@H](C(C)C)NC(=O)CNC(=O)CNC(=O)[C@@H]2CCCN2C(=O)[C@H](C(C)C)NC(=O)[C@H](CC(N)=O)NC(=O)[C@H](CO)NC(=O)[C@H](Cc2c[nH]cn2)NC(=O)[C@H](Cc2c[nH]cn2)NC(=O)[C@H](C)NC(=O)[C@H](CCC(N)=O)NC(=O)[C@H](CCCCN)NC(=O)[C@H](CCC(N)=O)NC1=O [compound 209] | 0.01 to 1 nM |
| CC[C@H](C)[C@H](NC(=O)[C@H](C)NC(=O)[C@H](CCCCN)NC(=O)[C@H](CCCNC(=N)N)NC(=O)[C@H](Cc1ccccc1)NC(=O)[C@H](CCC(N)=O)NC(=O)[C@@H]1CSSC[C@H](N)C(=O)N[C@@H](CC(=O)O)C(=O)N[C@@H](C)C(=O)N[C@@H]([C@@H](C)O)C(=O)N1)C(=O)N[C@@H](CC(=O)O)C(=O)N[C@@H](CC(=O)O)C(=O)N[C@H]1CSSC[C@@H](C(=O)N[C@@H](CCSC)C(=O)N[C@@H](CCCCN)C(=O)N[C@@H](CCC(N)=O)C(=O)N[C@@H](CCCCN)C(=O)N[C@@H](CCCCN)C(=O)N[C@@H](CCCCN)C(=O)N[C@@H](CCC(=O)O)C(=O)N[C@@H](Cc2ccccc2)C(=O)N[C@@H](CCCCN)C(=O)N[C@@H](C)C(=O)NCC(N)=O)NC(=O)C(C)(C)NC(=O)[C@H](CCCCN)NC(=O)[C@H](Cc2ccccc2)NC(=O)[C@H](C(C)C)NC(=O)[C@H](CO)NC(=O)CNC(=O)[C@@H]2CCCN2C(=O)[C@H](C(C)C)NC(=O)[C@H](CCC(=O)O)NC(=O)[C@H](CO)NC(=O)[C@H](Cc2c[nH]cn2)NC(=O)[C@H](Cc2c[nH]cn2)NC(=O)[C@H](C)NC(=O)[C@H](CCC(N)=O)NC(=O)[C@H](CCCCN)NC(=O)[C@H](CCC(N)=O)NC1=O [compound 192] | 0.01 to 1 nM |
| CC[C@H](C)[C@H](NC(=O)[C@H](C)NC(=O)[C@H](CCCCN)NC(=O)[C@H](CCCNC(=N)N)NC(=O)[C@H](Cc1ccccc1)NC(=O)[C@H](CCC(N)=O)NC(=O)[C@@H]1CSSC[C@H](N)C(=O)N[C@@H](CC(=O)O)C(=O)N[C@@H](C)C(=O)N[C@@H]([C@@H](C)O)C(=O)N1)C(=O)N[C@@H](CC(=O)O)C(=O)N[C@@H](CC(=O)O)C(=O)N[C@H]1CSSC[C@@H](C(=O)N[C@@H](CCSC)C(=O)N[C@@H](CCCCN)C(=O)N[C@@H](CCC(N)=O)C(=O)N[C@@H](CCCCN)C(=O)N[C@@H](CCCCN)C(=O)N[C@@H](CCCCN)C(=O)N[C@@H](CCC(=O)O)C(=O)N[C@@H](Cc2ccccc2)C(=O)N[C@@H](CCCCN)C(=O)N[C@@H](C)C(=O)NCC(N)=O)NC(=O)C(C)(C)NC(=O)[C@H](CCCCN)NC(=O)[C@H](Cc2ccccc2)NC(=O)[C@H](C(C)C)NC(=O)C(C)(C)NC(=O)CNC(=O)[C@@H]2CCCN2C(=O)[C@H](C(C)C)NC(=O)[C@H](CC(N)=O)NC(=O)[C@H](CO)NC(=O)[C@H](Cc2c[nH]cn2)NC(=O)[C@H](Cc2c[nH]cn2)NC(=O)[C@H](C)NC(=O)[C@H](CCC(N)=O)NC(=O)[C@H](CCCCN)NC(=O)[C@H](CCC(N)=O)NC1=O [compound 198] | 0.01 to 1 nM |
| CC[C@H](C)[C@H](NC(=O)[C@H](C)NC(=O)[C@H](CCCCN)NC(=O)[C@H](CCCNC(=N)N)NC(=O)[C@H](Cc1ccccc1)NC(=O)[C@H](CCC(N)=O)NC(=O)[C@@H]1CSSC[C@H](N)C(=O)N[C@@H](CC(=O)O)C(=O)N[C@@H](C)C(=O)N[C@@H]([C@@H](C)O)C(=O)N1)C(=O)N[C@@H](CCC(=O)O)C(=O)N[C@@H](CC(=O)O)C(=O)N[C@H]1CSSC[C@@H](C(=O)N[C@@H](CCSC)C(=O)N[C@@H](CCCCN)C(=O)N[C@@H](CCC(N)=O)C(=O)N[C@@H](CCCCN)C(=O)N[C@@H](CCCCN)C(=O)N[C@@H](CCCCN)C(=O)N[C@@H](CCC(=O)O)C(=O)N[C@@H](Cc2ccccc2)C(=O)N[C@@H](CCCCN)C(=O)N[C@@H](C)C(=O)NCC(N)=O)NC(=O)C(C)(C)NC(=O)[C@H](CCCCN)NC(=O)[C@H](Cc2ccccc2)NC(=O)[C@H](C(C)C)NC(=O)[C@H](CO)NC(=O)CNC(=O)[C@@H]2CCCN2C(=O)[C@H](C(C)C)NC(=O)[C@H](CC(N)=O)NC(=O)[C@H](CO)NC(=O)[C@H](Cc2c[nH]cn2)NC(=O)[C@H](Cc2c[nH]cn2)NC(=O)[C@H](C)NC(=O)[C@H](CCC(N)=O)NC(=O)[C@H](CCCCN)NC(=O)[C@H](CCC(N)=O)NC1=O [compound 203] | 0.01 to 1 nM |
| CC[C@H](C)[C@H](NC(=O)[C@H](C)NC(=O)[C@H](CCCCN)NC(=O)[C@H](CCCNC(=N)N)NC(=O)[C@H](Cc1ccccc1)NC(=O)[C@H](CCC(N)=O)NC(=O)[C@@H]1CSSC[C@H](N)C(=O)N[C@@H](CC(=O)O)C(=O)N[C@@H](C)C(=O)N[C@@H]([C@@H](C)O)C(=O)N1)C(=O)N[C@@H](CC(=O)O)C(=O)N[C@@H](CC(=O)O)C(=O)N[C@H]1CSSC[C@@H](C(=O)N[C@@H](CCSC)C(=O)N[C@@H](CCCCN)C(=O)N[C@@H](CCC(N)=O)C(=O)N[C@@H](CCCCN)C(=O)N[C@@H](CCCCN)C(=O)N[C@@H](CCCCN)C(=O)N[C@@H](CCC(=O)O)C(=O)N[C@@H](Cc2ccccc2)C(=O)N[C@@H](CCCCN)C(=O)N[C@@H](C)C(=O)NCC(N)=O)NC(=O)C(C)(C)NC(=O)[C@H](CCCCN)NC(=O)[C@H](Cc2ccccc2)NC(=O)[C@H](C(C)C)NC(=O)[C@H](CO)NC(=O)CNC(=O)[C@@H]2CCCN2C(=O)[C@H](CCC(=O)O)NC(=O)[C@H](CC(N)=O)NC(=O)[C@H](CO)NC(=O)[C@H](Cc2c[nH]cn2)NC(=O)[C@H](Cc2c[nH]cn2)NC(=O)[C@H](C)NC(=O)[C@H](CCC(N)=O)NC(=O)[C@H](CCCCN)NC(=O)[C@H](CCC(N)=O)NC1=O [compound 191] | 0.01 to 1 nM |
| CC[C@H](C)[C@H](NC(=O)[C@H](C)NC(=O)[C@H](CCCCN)NC(=O)[C@H](CCCNC(=N)N)NC(=O)[C@H](Cc1ccccc1)NC(=O)[C@H](CCC(N)=O)NC(=O)[C@@H]1CSSC[C@H](N)C(=O)N[C@@H](CC(=O)O)C(=O)N[C@@H](C)C(=O)N[C@@H]([C@@H](C)O)C(=O)N1)C(=O)N[C@@H](CC(=O)O)C(=O)N[C@@H](CC(=O)O)C(=O)N[C@H]1CSSC[C@@H](C(=O)N[C@@H](CCSC)C(=O)N[C@@H](CCCCN)C(=O)N[C@@H](CCC(N)=O)C(=O)N[C@@H](CCCCN)C(=O)N[C@@H](CCCCN)C(=O)N[C@@H](CCCCN)C(=O)N[C@@H](CCC(=O)O)C(=O)N[C@@H](Cc2ccccc2)C(=O)N[C@@H](CCCCN)C(=O)N[C@@H](C)C(=O)NCC(N)=O)NC(=O)C(C)(C)NC(=O)[C@H](CCCCN)NC(=O)[C@H](Cc2ccccc2)NC(=O)[C@H](C(C)C)NC(=O)[C@H](CO)NC(=O)[C@H](C(C)C)NC(=O)[C@H](CO)NC(=O)[C@H]([C@@H](C)O)NC(=O)[C@H](CCC(N)=O)NC(=O)[C@H](CC(C)C)NC(=O)CNC(=O)[C@@H]2CCCN2C(=O)[C@H](C(C)C)NC(=O)[C@H](CC(N)=O)NC(=O)[C@H](CO)NC(=O)[C@H](Cc2c[nH]cn2)NC(=O)[C@H](Cc2c[nH]cn2)NC(=O)[C@H](C)NC(=O)[C@H](CCC(N)=O)NC(=O)[C@H](CCCCN)NC(=O)[C@H](CCC(N)=O)NC1=O [compound 197] | 0.01 to 1 nM |
